One assay has as its system wildtype Wnt pathway. The assay can be described thus: HEK293 TOP reporter assay, wildtype Wnt pathway stimulated with Wnt-3a. The format is cell-based, human. The note with it: HEK293 TOP cells, EC50 concentration of recombinant Wnt-3a, 16 hours; read-out: HEK TOP OncoFlash IC50. The procedure: (§1) Measurement of luciferase expression was done as described for the constitutive active Wnt assay.
In order to discover and characterize small molecules which inhibit the wildtype Wnt pathway, a cellular reporter assay was employed. […] Stable transfectants were generated by selection with 300 μg/ml Hygromycin.
For orientation: Reporter assays use an easily measured gene product as a stand-in for the process of interest.

Assay [1] deals with constitutive active colorectal cancer cell (CRC) Wnt pathway. As to the kind of experiment: HCT116 TOPFlash cellular reporter assay (Super TopFlash luciferase), constitutive active Wnt pathway. The format is cell-based. The following applies: HCT116 TOP reporter cells, 36 hours incubation, luciferase expression. From the text: In order to discover and characterize small molecules which inhibit the constitutive active colorectal cancer cell (CRC) Wnt pathway, a cellular reporter assay was employed. The corresponding assay cell was generated by transfection of the colorectal cancer cell line HCT116 (ATCC, #CCL-247) with the Super TopFlash vector (Morin, Science 275, 1997, 1787-1790; Molenaar et al., Cell 86 (3), 1996, 391-399). […] Stable transfectants were generated by cotransfection with pcDNA3 and selection of stable transfected cells with 1 mg/ml G418.

The subject of assay [2] is HCT116 FOP control reporter cell line. As to the kind of experiment: HCT116 FOPFlash control reporter assay (FOP control vector, non-functional TCF elements). The note with it: HCT116 FOP control reporter cells, 36 hours incubation, luciferase expression. The format is cell-based. The text has this:
In a parallel approach, HCT116 cells were cotransfected with the FOP control vector and pcDNA3. The FOP vector is identical to the TOP construct, but it contains instead of functional TCF elements a randomized, non-functional sequence. For this transfection a stable transfected cell line was generated as well.

The test system of assay [3] is HEK293 FOP control reporter cell line. The assay can be described thus: HEK293 FOP control reporter assay. The following applies: read-out: HEK FOP IC50. The format is cell-based, human. As for the experimental part:
as §1
In a parallel approach, HEK293 cells were cotransfected with the FOP control vector and pcDNA3. The FOP vector is identical to the TOP construct, but it contains instead of functional TCF elements a randomized, non-functional sequence. For this transfection a stable transfected cell line was generated as well, based on selection with Geneticin (1 mg/ml).

Setting [4] is: HEK293 FOP control cells, EC50 concentration of recombinant Wnt-3a, 16 hours.

IC50 data for six compounds are collected here from patent US10130633B2, “Compounds” (BAYER PHARMA AKTIENGESELLSCHAFT, priority 2013, dated 2018).

pIC50: −log10 of the molar value. Read-outs that look alike come from different tables or passages of the source.

Turning to `C[C@@H](C(=O)Nc1cc(C(=O)Nc2ccc(-c3ccccc3F)nc2)ccc1OC(F)(F)F)N1CCOCC1` (single isomer, unassigned) [Example 8, N-[6-(2-fluorophenyl)pyridin-3-yl]-3-{[(2S)-2-(morpholin-4-yl)propanoyl]amino}-4-(trifluoromethoxy)benzamide or N-[6-(2-fluorophenyl)pyridin-3-yl]-3-{[(2R)-2-(morpholin-4-yl)propanoyl]amino}-4-(trifluoromethoxy)benzamide], the pIC50 (usually the negative decadic logarithm of the IC50, by convention in mol/L) was 6.89 in the assay with wildtype Wnt pathway, 7.29 in assay [1], 5.08 in assay [2] and 5.09 in assay [3] (setting [4]).
Turning to `C[C@H](C(=O)Nc1cc(C(=O)Nc2ccc(-c3ccc(N)cc3)nc2)ccc1OC(F)(F)F)N1CCOCC1` (single isomer, unassigned) [Example 117, N-[6-(4-aminophenyl)pyridin-3-yl]-3-{[(2R)-2-(morpholin-4-yl)propanoyl]amino}-4-(trifluoromethoxy)benzamide or N-[6-(4-aminophenyl)pyridin-3-yl]-3-{[(2S)-2-(morpholin-4-yl)propanoyl]amino}-4-(trifluoromethoxy)benzamide], the pIC50 in the assay on wildtype Wnt pathway was 7.85; in assay [1], 7.74; in assay [2] it was 4.35; in assay [3] (setting [4]), 5.00.
Take `CC(C)(C(=O)Nc1cc(C(=O)Nc2ccc(-c3ccccc3F)nc2)ccc1OC(F)(F)F)N1CCOCC1` [Example 11, N-[6-(2-fluorophenyl)pyridin-3-yl]-3-{[2-methyl-2-(morpholin-4-yl)propanoyl]amino}-4-(trifluoromethoxy)benzamide]: the pIC50 in the assay on wildtype Wnt pathway was 6.15; in assay [1] (Homo sapiens, HCT-116, 36 h), 6.14; in assay [2] (Homo sapiens, HCT-116, 36 h) it was not above 4.30; in assay [3] (Homo sapiens, HEK293, 16 h), 5.09.
In the case of `Cc1ccc(NC(=O)c2ccc(-c3ccccc3)s2)cc1NC(=O)CN1CCOCC1` [Example 22, N-{4-methyl-3-[(morpholin-4-ylacetyl)amino]phenyl}-5-phenylthiophene-2-carboxamide], the negative logarithm of the IC50 (pIC50) is 5.96 with wildtype Wnt pathway; 6.16 in assay [1] (Homo sapiens, HCT-116, 36 h); not above 4.30 in assay [2] (Homo sapiens, HCT-116, 36 h); 4.62 in assay [3] (Homo sapiens, HEK293, 16 h).
Consider `COc1ccc(NC(=O)c2ccc(-c3ccccc3)[nH]2)cc1NC(=O)CN1CCOCC1` [Example 24, N-{4-methoxy-3-[(morpholin-4-ylacetyl)amino]phenyl}-5-phenyl-1H-pyrrole-2-carboxamide], for which the pIC50 was 6.19 in the assay with wildtype Wnt pathway; 5.95 in assay [1] (Homo sapiens, HCT-116, 36 h); 4.77 in assay [3] (Homo sapiens, HEK293, 16 h).
Turning to `CC(C(=O)Nc1cc(C(=O)Nc2ccc(-c3cccc(F)c3)nc2)ccc1OC(F)(F)F)N1CC2CCC(C1)O2` (stereo not shown) [Example 70, N-[6-(3-fluorophenyl)pyridin-3-yl]-3-{[2-(8-oxa-3-azabicyclo[3.2.1]oct-3-yl)propanoyl]amino}-4-(trifluoromethoxy)benzamide], the pIC50 is 7.07 in the assay with wildtype Wnt pathway; 7.62 in assay [1]; 5.20 in assay [3] (Homo sapiens, HEK293, 16 h).
